Binding of CDR-mutated scFvs to a peptide of the spike HR2 region

Binding partner: SARS-CoV-2 spike HR2 peptide, sequence PDVDLGDISGINAS.

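The starting antibody came from a phage panning campaign against this peptide. The variants were designed computationally from a first round of random CDR variants and then made and measured. Group labels follow the data file (Ctrl: baseline library sampled from a position-specific scoring matrix, with some repeated check sequences; En: ensemble of fine-tuned language models; GP: Gaussian process model; HC: hill climbing; Gen: genetic algorithm; Gibbs: Gibbs sampling; a sequence that several methods proposed may carry one label only). In AlphaSeq, yeast of one mating type display the scFv and yeast of the other type display the target. Pairs that bind mate more often; barcode pairs of the diploids are counted by sequencing. A regression on co-assayed BCL2-family reference pairs converts the normalised counts of each replicate to an apparent Kd. Mating was done six times.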

Ab-14 is the parent antibody, in scFv form: VH, then three GGGGS repeats, then VL. The heavy chain is unchanged in all variants.
VH: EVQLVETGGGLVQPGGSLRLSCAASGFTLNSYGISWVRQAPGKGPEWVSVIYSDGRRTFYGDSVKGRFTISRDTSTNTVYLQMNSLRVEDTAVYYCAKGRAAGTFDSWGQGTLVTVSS
VL: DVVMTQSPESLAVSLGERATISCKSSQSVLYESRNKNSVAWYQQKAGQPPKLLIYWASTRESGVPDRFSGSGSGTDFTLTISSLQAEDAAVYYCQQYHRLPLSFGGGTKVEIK

The parent's light chain CDRs are KSSQSVLYESRNKNSVA, WASTRES, QQYHRLPLS; each variant's own CDRs replace them letter for letter.
Each Kd is an estimate from the mating assay, the geometric mean of the replicates in which the pair was seen; lower is stronger.
"not detected" means that the variant was in the library but no mating with the target was seen in any replicate; the authors take this as a sign of poor binding, and no number exists.
Order: sorted from the lowest average up, undetected variants last.
Background: pairings of all light chain designs with three empty control strains gave a value in 4% of cases (median 430 nM, 5th percentile 38 nM). Values in that range, when seen in few replicates, are hard to tell from nonspecific mating. Also given: how often the same scFv was detected with the empty control strains.

CDR-L1 | CDR-L2 | CDR-L3 | group | Kd | detected | signal with controls
KLSQSKLYESRNKNSVA | DASQRES | QQYHRLPLS | GP_Gen | 310 pM | 6 of 6 | 1 of 18
KLPQSVEYESRNKNSVA | NASTREV | QQYHRLPLS | GP_Gen | 430 pM | 6 of 6 | 3 of 18
KLSQQNLYESRNKNSVA | NASQRLS | QQYHRLPLS | GP_Gibbs | 520 pM | 6 of 6 | 0 of 18
KLNQSTLYESRNQNSVA | NASTRES | QQYHRLPLS | GP_HC | 550 pM | 6 of 6 | 0 of 18
KVQQSVLYESRNKNSVA | EASTRLS | QQYHRLPLS | GP_Gen | 590 pM | 6 of 6 | 1 of 18
MISQLFNMGQFAINSVA | QASTRNE | QQYDRLPLV | En_Gen | 620 pM | 2 of 6 | 0 of 18
KLSQSELYESRNTNSVA | NASTRES | QQYHRLPLS | GP_Gen | 630 pM | 6 of 6 | 1 of 18
KLYQSFLYESRNKNSVA | NASQRES | QQYHRLPLS | GP_Gen | 670 pM | 6 of 6 | 4 of 18
KLSQSNGYEDRNKNSVA | SASQREM | QQYHRLPLS | GP_Gibbs | 690 pM | 6 of 6 | 0 of 18
KQSQLVWYEQRNKNNVA | EGSTRES | QQYHRLPLS | GP_Gibbs | 730 pM | 6 of 6 | 0 of 18
MIKSENIEVGNYQNSIA | DGASTMA | QQYYRLPLA | En_Gibbs | 880 pM | 6 of 6 | 0 of 18
KLYSVTGTEKVNGNNVA | EMETRER | QQYNRLPLA | En_Gen | 930 pM | 6 of 6 | 1 of 18
KFEQSYLYESRNKNSVA | NASQRES | QQYHRLPLS | GP_Gen | 930 pM | 6 of 6 | 1 of 18
KSSNSILYESVNKNSVA | HASTRES | QQYHRLPLS | GP_HC | 960 pM | 6 of 6 | 0 of 18
KSSQSVLMESRNFNSVA | DASTRES | QQYHRLPLS | GP_HC | 980 pM | 6 of 6 | 0 of 18
DSSQSVLYESRNKNSVA | GASTRES | QQYHRLPLS | GP_HC | 1.0 nM | 6 of 6 | 1 of 18
KSSPSELYEDRNFNSVA | HASQREE | QQYHRLPLS | GP_Gibbs | 1.0 nM | 6 of 6 | 0 of 18
KISQSYHYESRNKNSVA | GASTRES | QQYHRLPLS | GP_HC | 1.2 nM | 6 of 6 | 0 of 18
KLSQSQLYESRNKNSVA | NGSTVES | QDYHRLPLS | GP_Gibbs | 1.2 nM | 6 of 6 | 1 of 18
KVSQSVLYEDRNSNSVA | NASQRES | QQYHRLPLS | GP_Gen | 1.3 nM | 6 of 6 | 1 of 18
KVAQGIYEEKRHSHNIA | EVSHLCD | QQYARLPLE | En_Gibbs | 1.3 nM | 6 of 6 | 0 of 18
ALGDVTRMESNKKSSIA | DMSNRAD | QQYHRLPLS | En_HC | 1.3 nM | 6 of 6 | 0 of 18
AFSGSHLYESRMKNSVA | NASTREE | QQYHRLPLS | GP_Gibbs | 1.4 nM | 6 of 6 | 0 of 18
KLSGEMEYESRNKNSVA | HASLRES | QDYHRLPLQ | GP_Gibbs | 1.4 nM | 6 of 6 | 0 of 18
KSSPSYLYNSRNKNSVA | NASTRES | QQYHRLPLS | Ctrl | 1.5 nM | 6 of 6 | 0 of 18
GIHSQMVGTSAVFENVA | NANERLE | QQYSRLPLT | En_Gibbs | 1.8 nM | 6 of 6 | 0 of 18
KLSQSWLYESRNKNSVA | GASTREN | QQYHRLPLS | GP_HC | 1.9 nM | 6 of 6 | 1 of 18
KMSQSVLMEMRNANSVA | NASTREM | QQYHRLPLS | GP_Gibbs | 2.4 nM | 6 of 6 | 1 of 18
KVSQSVLYESRMKNSVA | EASTRCS | QQYHRLPLE | GP_HC | 2.5 nM | 6 of 6 | 0 of 18
KSQQSVLHESRNYNSVA | DASTRES | QQYHRLPLS | Ctrl | 2.7 nM | 6 of 6 | 0 of 18
KSSISYLGESRNENSVA | NASTREQ | QQYHRLPLS | GP_HC | 2.7 nM | 6 of 6 | 1 of 18
TISQSWLFESRNKNNVA | EMSTREN | QDYDRLPLS | En_HC | 2.8 nM | 6 of 6 | 0 of 18
KSSISQLYESMNKNSVA | NGSTRES | QQYHRLPLS | GP_HC | 3.9 nM | 6 of 6 | 1 of 18
KSLWSHLYESVNKNSVA | HASTRED | QQYHRLPLS | GP_HC | 4.3 nM | 6 of 6 | 0 of 18
KSLQSVLYESGNKNSVA | HASTRED | QQYHRLPLS | GP_HC | 5.0 nM | 6 of 6 | 0 of 18
MLTWGDDHETGHQNSIA | HAHERNT | QQYAQLPLT | En_Gibbs | 5.6 nM | 6 of 6 | 0 of 18
QLYAVNDLTSKQSNNVA | EQTTREN | QQYHRLPLS | En_HC | 5.7 nM | 6 of 6 | 0 of 18
TISQSYLMENQFKNSVA | QASTRES | QCYDRLPLS | En_HC | 5.9 nM | 6 of 6 | 5 of 18
MLDEYQSYGAANLNAVA | DANCTMF | QQYYRLPLS | En_Gibbs | 6.2 nM | 6 of 6 | 1 of 18
SITQLIAYGSRNKNSVA | QMSTRES | QQYDRLPLS | En_HC | 6.9 nM | 6 of 6 | 0 of 18
KVDQSVLGQSRNKNAVA | AASTRES | QQYHRLPLS | GP_Gibbs | 8.4 nM | 6 of 6 | 0 of 18
VMQMDNDRMNDATKAIA | DVTMREK | QQYNRLPLM | En_Gibbs | 9.0 nM | 6 of 6 | 1 of 18
MISQLMNMGQFAINSVA | QASIRNQ | QQYDRLPLA | En_Gen | 9.6 nM | 6 of 6 | 0 of 18
NLAMALEQGILIKNNIA | SDNLREN | QQYEKLPLI | En_Gibbs | 9.8 nM | 6 of 6 | 1 of 18
HVNGEWNHGANRDNNIA | EAQLVAA | QDYFRLPFI | En_Gibbs | 11 nM | 6 of 6 | 2 of 18
MFSQLMAYGSRYKNSVA | QASTRED | QQYHYLPLS | En_HC | 13 nM | 6 of 6 | 0 of 18
KSSLSVLDESRNKNSVA | AASTRES | QQYHQLMLS | Ctrl | 13 nM | 6 of 6 | 0 of 18
HITYGMMVHGRHSSSIA | QAETRAK | QQYDRLPLI | En_Gen | 14 nM | 6 of 6 | 0 of 18
KVQQSTLYESRNKNSVA | WASTRES | QQYHRLPLS | GP_HC | 23 nM | 2 of 6 | 0 of 18
KISYMGEYFSTNHSAIA | QASTREE | QQYHRLPLS | En_HC | 25 nM | 6 of 6 | 0 of 18
KSSQSMLGESRNHNSVA | SASTRES | QQVHRLPLS | Ctrl | 25 nM | 3 of 6 | 0 of 18
TISQLMNMGQFAISSVA | QASIRNE | QQYDRLPLI | En_Gen | 34 nM | 6 of 6 | 0 of 18
KSSQSVLYEYDNKNSVA | WASTRES | QQYHSLPLS | Ctrl | 47 nM | 3 of 6 | 1 of 18
KSSQDVLYESRNKNHVA | WASTRES | QQYHRLPLS | Ctrl | 48 nM | 1 of 6 | 0 of 18
KSSQSFLYEDRNKNSVA | WASTRES | QQYHRLPLS | Ctrl | 64 nM | 5 of 6 | 0 of 18
KVSEFMRGLMQRKDSIA | DNTTRNN | QQYDRLPLS | En_Gen | 170 nM | 5 of 6 | 0 of 18
NSSQSMLYESRNKNSVA | WASTRES | QQYHRLPLS | Ctrl | 180 nM | 3 of 6 | 0 of 18
KDSQSVLYESRNKNSVA | WASMRES | QQYHRLPLS | Ctrl | 220 nM | 1 of 6 | 0 of 18
KSSQSDLYESRNKNWVA | WASTRSS | QQYHRLPLS | Ctrl | 250 nM | 2 of 6 | 1 of 18
LSSISYLYESPNKNSVA | EASTREQ | QQYHRLPLS | GP_HC | 280 nM | 1 of 6 | 0 of 18
KSSQSVLREDRNKNSVA | WASTRES | QQYHRLPLW | Ctrl | 350 nM | 4 of 6 | 1 of 18
KVMQEMLYESRMINSVA | NASQRES | QQYHRLPLS | GP_Gibbs | 360 nM | 5 of 6 | 0 of 18
ILYDSVGTLSRNKNSVA | DNSTRCS | QQYDRLPLS | En_HC | 390 nM | 6 of 6 | 2 of 18
KSSQSVLKESRNKNSVA | WASHRPS | QQYHRLPLK | Ctrl | 490 nM | 3 of 6 | 1 of 18
KHSQSVLQESRNKNSVA | WASTRES | QQYHRLPLS | Ctrl | 840 nM | 3 of 6 | 0 of 18
MSQQSVLIESRNKKSVA | WASTRED | QQAHRLPLS | Ctrl | not detected | 0 of 6 | 0 of 18
TLHANIEYGGGTWKSIA | DNTQRVD | QYYQRLPLG | En_Gibbs | not detected | 0 of 6 | 0 of 18
KSSPSVLYESRNKNSVA | WASTRES | CQYHRLPLS | Ctrl | not detected | 0 of 6 | 1 of 18
KSSKSVPFESRNKNSVA | NASTRES | QQYHRLPLS | GP_HC | not detected | 0 of 6 | 0 of 18
KSVQSVLYESRNKNSVA | WASTREL | QQYHRLPLS | Ctrl | not detected | 0 of 6 | 1 of 18
KLMNSLDAFKQWEDNVA | EVEHKVA | QQYYHLPLT | En_Gibbs | not detected | 0 of 6 | 0 of 18

The 11 strongest on average among those seen in every replicate, once more:

CDR-L1,CDR-L2,CDR-L3,group,Kd,detected,signal with controls
KLSQSKLYESRNKNSVA,DASQRES,QQYHRLPLS,GP_Gen,310 pM,6 of 6,1 of 18
KLPQSVEYESRNKNSVA,NASTREV,QQYHRLPLS,GP_Gen,430 pM,6 of 6,3 of 18
KLSQQNLYESRNKNSVA,NASQRLS,QQYHRLPLS,GP_Gibbs,520 pM,6 of 6,0 of 18
KLNQSTLYESRNQNSVA,NASTRES,QQYHRLPLS,GP_HC,550 pM,6 of 6,0 of 18
KVQQSVLYESRNKNSVA,EASTRLS,QQYHRLPLS,GP_Gen,590 pM,6 of 6,1 of 18
KLSQSELYESRNTNSVA,NASTRES,QQYHRLPLS,GP_Gen,630 pM,6 of 6,1 of 18
KLYQSFLYESRNKNSVA,NASQRES,QQYHRLPLS,GP_Gen,670 pM,6 of 6,4 of 18
KLSQSNGYEDRNKNSVA,SASQREM,QQYHRLPLS,GP_Gibbs,690 pM,6 of 6,0 of 18
KQSQLVWYEQRNKNNVA,EGSTRES,QQYHRLPLS,GP_Gibbs,730 pM,6 of 6,0 of 18
MIKSENIEVGNYQNSIA,DGASTMA,QQYYRLPLA,En_Gibbs,880 pM,6 of 6,0 of 18
KLYSVTGTEKVNGNNVA,EMETRER,QQYNRLPLA,En_Gen,930 pM,6 of 6,1 of 18

The authors averaged sequences with at least three values out of six and counted those with two or fewer as poor binders.
Values of this round are not directly comparable with the first-round values of the same sequences.

Values reported by Li et al. 2023, doi:10.1038/s41467-023-39022-2 (FLAb copy).